pIC50: −log10 of the molar value.
Tests used:
human PAC1 receptor = biological target: T1, human PAC1 receptor (Homo sapiens, UniProt P41586); assay: LANCE Ultra cAMP accumulation antagonist assay in SHSY-5Y cells; format: cell-based;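 also: inhibition of cAMP accumulation evoked by PAC1 agonist at its EC80 in SHSY-5Y cells endogenously expressing receptor, 30 min preincubation then 15 min agonist, TR-FRET readout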
T1 construct: SHSY-5Y (human neuroblastoma cell line) and RG-2 (rat glioma cell line) cells endogenously express human and rat PAC1 receptors, respectively; endogenous in cells; host or cells: SHSY-5Y human neuroblastoma cells
T1 sequence (P41586 21-468): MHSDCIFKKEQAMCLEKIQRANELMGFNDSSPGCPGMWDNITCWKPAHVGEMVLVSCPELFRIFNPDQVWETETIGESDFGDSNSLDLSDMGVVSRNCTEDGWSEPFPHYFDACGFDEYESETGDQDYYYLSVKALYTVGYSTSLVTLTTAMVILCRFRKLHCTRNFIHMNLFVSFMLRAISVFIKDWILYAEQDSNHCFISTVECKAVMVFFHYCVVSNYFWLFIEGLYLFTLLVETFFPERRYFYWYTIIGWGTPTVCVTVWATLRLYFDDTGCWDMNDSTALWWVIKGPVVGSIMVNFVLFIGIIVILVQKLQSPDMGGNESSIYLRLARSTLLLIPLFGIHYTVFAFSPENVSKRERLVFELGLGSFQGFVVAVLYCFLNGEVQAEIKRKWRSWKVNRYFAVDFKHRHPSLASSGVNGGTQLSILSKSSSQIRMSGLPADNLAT

rat PAC1 receptor = biological target: T2, rat PAC1 receptor (Rattus norvegicus, UniProt P32215); assay: LANCE Ultra cAMP accumulation antagonist assay in RG-2 cells; format: cell-based;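 also: RG-2 rat glioma cells endogenously expressing PAC1, test peptide preincubated 30 min, then PAC1 agonist added at its EC80 for 15 min, cAMP accumulation read by LANCE Ultra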
T2 construct: SHSY-5Y (human neuroblastoma cell line) and RG-2 (rat glioma cell line) cells endogenously express human and rat PAC1 receptors, respectively; endogenous in cells; host or cells: RG-2 rat glioma cells
T2 sequence (P32215 20-523): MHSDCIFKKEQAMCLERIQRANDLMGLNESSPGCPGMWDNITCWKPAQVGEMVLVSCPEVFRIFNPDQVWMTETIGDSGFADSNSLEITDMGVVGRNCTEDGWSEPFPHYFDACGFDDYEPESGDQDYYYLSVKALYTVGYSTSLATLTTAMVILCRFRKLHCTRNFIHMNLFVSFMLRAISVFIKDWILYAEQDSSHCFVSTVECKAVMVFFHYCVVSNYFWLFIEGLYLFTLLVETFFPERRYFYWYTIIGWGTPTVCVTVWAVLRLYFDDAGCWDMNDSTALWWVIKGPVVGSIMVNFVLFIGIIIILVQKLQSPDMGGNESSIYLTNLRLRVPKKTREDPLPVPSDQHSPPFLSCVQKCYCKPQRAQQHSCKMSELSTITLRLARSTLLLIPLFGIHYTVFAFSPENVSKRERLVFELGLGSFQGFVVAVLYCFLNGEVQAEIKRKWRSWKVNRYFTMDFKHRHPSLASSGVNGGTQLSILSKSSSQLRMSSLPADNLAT

## CCCC[C@H](NC(=O)[C@@H]1CSSC[C@H](NC(=O)[C@H](CC(=O)O)NC(=O)[C@H](CC(=O)O)NC(=O)[C@@H](NC(=O)[C@H](C)NC(=O)[C@H](CCCCN)NC(=O)[C@H](CCCNC(=N)N)NC(=O)[C@H](Cc2ccccc2)NC(=O)[C@H](CCC(N)=O)NC(=O)[C@@H]2CSSC[C@H](N)C(=O)N[C@@H](CC(=O)O)C(=O)N[C@@H](C)C(=O)N[C@@H]([C@@H](C)O)C(=O)N2)[C@@H](C)CC)C(=O)N[C@@H](CCC(N)=O)C(=O)N[C@@H](CCCCN)C(=O)N[C@@H](CCC(N)=O)C(=O)N[C@@H](C)C(=O)N[C@@H](Cc2c[nH]cn2)C(=O)N[C@@H](Cc2c[nH]cn2)C(=O)N[C@@H](CO)C(=O)N[C@@H](CC(N)=O)C(=O)N[C@@H](C(C)C)C(=O)N2CCC[C@H]2C(=O)NCC(=O)N[C@@H](CO)C(=O)N[C@@H](C(C)C)C(=O)N[C@@H](Cc2ccccc2)C(=O)N[C@@H](CCCCN)C(=O)NC(C)(C)C(=O)N1)C(=O)N[C@@H](CCCCN)C(=O)N[C@@H](CCC(N)=O)C(=O)N[C@@H](CCCCN)C(=O)N[C@@H](CCCCN)C(=O)N[C@@H](CCCCN)C(=O)N[C@@H](CCC(=O)O)C(=O)N[C@@H](Cc1ccccc1)C(=O)N[C@@H](CCCCN)C(=O)N[C@@H](C)C(=O)NCC(N)=O [compound 263]
Human PAC1 receptor
  pIC50: 7.00 to 9.00
Rat PAC1 receptor
  pIC50: 9.00 to 11.00

## CCCC[C@H](NC(=O)[C@@H]1CSSC[C@H](NC(=O)[C@H](CC(=O)O)NC(=O)[C@H](CC(=O)O)NC(=O)[C@@H](NC(=O)[C@H](C)NC(=O)[C@H](CCCCN)NC(=O)[C@H](CCCNC(=N)N)NC(=O)[C@H](Cc2ccccc2)NC(=O)[C@H](CCC(N)=O)NC(=O)[C@@H]2CSSC[C@H](N)C(=O)N[C@@H](CC(=O)O)C(=O)N[C@@H](C)C(=O)N[C@@H]([C@@H](C)O)C(=O)N2)[C@@H](C)CC)C(=O)N[C@@H](CCC(N)=O)C(=O)N[C@@H](CCCCN)C(=O)N[C@@H](CCC(N)=O)C(=O)N[C@@H](C)C(=O)N[C@@H](Cc2c[nH]cn2)C(=O)N[C@@H](Cc2c[nH]cn2)C(=O)N[C@@H](CO)C(=O)N[C@@H](CC(N)=O)C(=O)N[C@@H](C(C)C)C(=O)N2CCC[C@H]2C(=O)NCC(=O)N[C@@H](CO)C(=O)N[C@@H](C(C)C)C(=O)N[C@@H](Cc2ccccc2)C(=O)N[C@@H](CCCCN)C(=O)NC(C)(C)C(=O)N1)C(=O)N[C@@H](CCCCN)C(=O)N[C@@H](CCC(N)=O)C(=O)N[C@@H](CCCCN)C(=O)N[C@@H](CCCCN)C(=O)N[C@@H](CCCCN)C(=O)N[C@@H](CCC(=O)O)C(=O)N[C@@H](Cc1ccccc1)C(=O)N[C@@H](CCCCN)C(N)=O [compound 264]
Human PAC1 receptor
  pIC50: 7.00 to 9.00
Rat PAC1 receptor
  pIC50: 9.00 to 11.00

## CCCC[C@H](NC(=O)[C@@H]1CSSC[C@H](NC(=O)[C@H](CC(=O)O)NC(=O)[C@H](CC(=O)O)NC(=O)[C@@H](NC(=O)[C@H](C)NC(=O)[C@H](CCCCN)NC(=O)[C@H](CCCNC(=N)N)NC(=O)[C@H](Cc2ccccc2)NC(=O)[C@H](CCC(N)=O)NC(=O)[C@@H]2CSSC[C@H](N)C(=O)N[C@@H](CC(=O)O)C(=O)N[C@@H](C)C(=O)N[C@@H]([C@@H](C)O)C(=O)N2)[C@@H](C)CC)C(=O)N[C@@H](CC(=O)O)C(=O)N[C@@H](CCCCN)C(=O)N[C@@H](CCC(N)=O)C(=O)N[C@@H](C)C(=O)N[C@@H](Cc2c[nH]cn2)C(=O)N[C@@H](Cc2c[nH]cn2)C(=O)N[C@@H](CO)C(=O)N[C@@H](CC(N)=O)C(=O)N[C@@H](C(C)C)C(=O)N2CCC[C@H]2C(=O)NCC(=O)N[C@@H](CC(N)=O)C(=O)N[C@@H](CO)C(=O)N[C@@H](C(C)C)C(=O)N[C@@H](Cc2ccccc2)C(=O)N[C@@H](CCCCN)C(=O)N[C@@H](CCC(=O)O)C(=O)N1)C(=O)N[C@@H](CCCCN)C(=O)N[C@@H](CCC(N)=O)C(=O)N[C@@H](CCCCN)C(=O)N[C@@H](CCCCN)C(=O)N[C@@H](CCCCN)C(=O)N[C@@H](CCC(=O)O)C(=O)N[C@@H](Cc1ccccc1)C(=O)N[C@@H](CCCCN)C(N)=O [compound 266]
Human PAC1 receptor
  pIC50: 7.00 to 9.00
Rat PAC1 receptor
  pIC50: 9.00 to 11.00

## CCCC[C@H](NC(=O)[C@@H]1CSSC[C@H](NC(=O)[C@H](CC(=O)O)NC(=O)[C@H](CC(=O)O)NC(=O)[C@@H](NC(=O)[C@H](C)NC(=O)[C@H](CCCCN)NC(=O)[C@H](CCCNC(=N)N)NC(=O)[C@H](Cc2ccccc2)NC(=O)[C@H](CCC(N)=O)NC(=O)[C@@H]2CSSC[C@H](N)C(=O)N[C@@H](CC(=O)O)C(=O)N[C@@H](C)C(=O)N[C@@H]([C@@H](C)O)C(=O)N2)[C@@H](C)CC)C(=O)N[C@@H](CCC(N)=O)C(=O)N[C@@H](CCCCN)C(=O)N[C@@H](CCC(N)=O)C(=O)N[C@@H](C)C(=O)N[C@@H](Cc2c[nH]cn2)C(=O)N[C@@H](Cc2c[nH]cn2)C(=O)N[C@@H](CO)C(=O)N[C@@H](CC(N)=O)C(=O)N[C@@H](C(C)C)C(=O)N2CCC[C@H]2C(=O)NCC(=O)N[C@@H](CC(N)=O)C(=O)N[C@@H](CO)C(=O)N[C@@H](Cc2ccccc2)C(=O)N[C@@H](CCCCN)C(=O)NC(C)(C)C(=O)N1)C(=O)N[C@@H](CCCCN)C(=O)N[C@@H](CCC(N)=O)C(=O)N[C@@H](CCCCN)C(=O)N[C@@H](CCCCN)C(=O)N[C@@H](CCCCN)C(=O)N[C@@H](CCC(=O)O)C(=O)N[C@@H](Cc1ccccc1)C(=O)N[C@@H](CCCCN)C(N)=O [compound 267]
Human PAC1 receptor
  pIC50: 7.00 to 9.00
Rat PAC1 receptor
  pIC50: 9.00 to 11.00

## CCCC[C@H](NC(=O)[C@@H]1CSSC[C@H](NC(=O)[C@H](CC(=O)O)NC(=O)[C@H](CC(=O)O)NC(=O)[C@@H](NC(=O)[C@H](C)NC(=O)[C@H](CCCCN)NC(=O)[C@H](CCCNC(=N)N)NC(=O)[C@H](Cc2ccccc2)NC(=O)[C@H](CCC(N)=O)NC(=O)[C@@H]2CSSC[C@H](N)C(=O)N[C@@H](CC(=O)O)C(=O)N[C@@H](C)C(=O)N[C@@H]([C@@H](C)O)C(=O)N2)[C@@H](C)CC)C(=O)N[C@@H](CCC(N)=O)C(=O)N[C@@H](CCCCN)C(=O)N[C@@H](CCC(N)=O)C(=O)N[C@@H](C)C(=O)N[C@@H](Cc2c[nH]cn2)C(=O)N[C@@H](Cc2c[nH]cn2)C(=O)N[C@@H](CO)C(=O)N[C@@H](CC(N)=O)C(=O)N[C@@H](C(C)C)C(=O)N2CCC[C@H]2C(=O)NCC(=O)N[C@@H](CO)C(=O)N[C@@H](C(C)C)C(=O)N[C@@H](Cc2ccccc2)C(=O)N[C@@H](CCCCN)C(=O)N[C@@H](CCC(=O)O)C(=O)N1)C(=O)N[C@@H](CCCCN)C(=O)N[C@@H](CCC(N)=O)C(=O)N[C@@H](CCCCN)C(=O)N[C@@H](CCCCN)C(=O)N[C@@H](CCCCN)C(=O)N[C@@H](CCC(=O)O)C(=O)N[C@@H](Cc1ccccc1)C(=O)N[C@@H](CCCCN)C(N)=O [compound 269]
Human PAC1 receptor
  pIC50: 7.00 to 9.00
Rat PAC1 receptor
  pIC50: 7.00 to 9.00

## CC[C@H](C)[C@H](NC(=O)[C@H](C)NC(=O)[C@H](CCCCN)NC(=O)[C@H](CCCNC(=N)N)NC(=O)[C@H](Cc1ccccc1)NC(=O)[C@H](CCC(N)=O)NC(=O)[C@@H]1CSSC[C@H](N)C(=O)N[C@@H](CC(=O)O)C(=O)N[C@@H](C)C(=O)N[C@@H]([C@@H](C)O)C(=O)N1)C(=O)N[C@@H](CC(=O)O)C(=O)N[C@@H](CC(=O)O)C(=O)N[C@H]1CSSC[C@@H](C(=O)N[C@@H](CCSC)C(=O)N[C@@H](CCCCN)C(=O)N[C@@H](CCC(N)=O)C(=O)N[C@@H](CCCCN)C(=O)N[C@@H](CCCCN)C(=O)N[C@@H](CCCCN)C(=O)N[C@@H](CCC(=O)O)C(=O)N[C@@H](Cc2ccccc2)C(=O)N[C@@H](CCCCN)C(N)=O)NC(=O)C(C)(C)NC(=O)[C@H](CCCCN)NC(=O)[C@H](Cc2ccccc2)NC(=O)[C@H](CO)NC(=O)[C@H](CC(N)=O)NC(=O)CNC(=O)[C@@H]2CCCN2C(=O)[C@H](C(C)C)NC(=O)[C@H](CC(N)=O)NC(=O)[C@H](CO)NC(=O)[C@H](Cc2c[nH]cn2)NC(=O)[C@H](Cc2c[nH]cn2)NC(=O)[C@H](C)NC(=O)[C@H](CCC(N)=O)NC(=O)[C@H](CCCCN)NC(=O)[C@H](CC(=O)O)NC1=O [compound 270]
Human PAC1 receptor
  pIC50: 7.00 to 9.00
Rat PAC1 receptor
  pIC50: 9.00 to 11.00

Reference: patent US20210395313A1, “PEPTIDE PAC1 ANTAGONISTS” (AMGEN INC., priority 2017, published 2021)
